What was measured:
hRpn13 Pru [1] = target: T1, hRpn13 Pru (Homo sapiens (Human), UniProt Q16186); assay: Isothermal titration calorimetry (ITC) of hRpn13 Pru binding; settings: read-out: ITC Kd; 200 μM hRpn13 Pru into 20 μM compound, 25° C., buffer C
Procedure: ITC experiments were performed at 25° C. on a MicroCal iTC200 system (Malvern, PA, USA). hRpn13 Pru, XL5, XL5 derivative, or RA190 were prepared in buffer C. One aliquot of 0.5 μL followed by 17 or 18 aliquots of 2.1 μL of 200 μM hRpn13 Pru was injected at 750 r.p.m. into a calorimeter cell (volume […]) that contained 20 μM XL5, XL5 derivative, or RA190. Blank experiments were performed by replacing XL5, XL5 derivative, or RA190 with buffer in the cell and the resulting data subtracted from the experimental data during analyses. The integrated interaction heat values were normalized as a function of protein concentration and the data were fit with MicroCal Origin 7.0-based software implementing the “One Set of Sites” model to yield binding affinity Ka (1/Kd), stoichiometry, and other thermodynamic parameters. Dissociation constants (Kd) as determined by ITC as well as relative binding affinities of selected compounds are presented n Table 1, while additional information on named compounds including structures, synthesis, and characterization is presented in Examples 3-9: […]

The chains behind the UniProt entries cited, without tags or fusion partners. Residues count along the entry.
UniProt Q16186, 1-150 limits assumed: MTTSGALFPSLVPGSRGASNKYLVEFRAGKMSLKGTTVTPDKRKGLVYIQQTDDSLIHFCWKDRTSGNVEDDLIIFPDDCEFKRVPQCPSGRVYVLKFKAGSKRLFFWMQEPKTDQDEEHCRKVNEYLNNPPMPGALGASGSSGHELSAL

hRpn13 Pru [2] = target: T1, hRpn13 Pru; assay: 2D NMR (1H,15N HSQC) binding to 15N-labeled hRpn13 Pru; settings: assessed by ITC and NMR
Text: We conducted in silico docking screens of commercial libraries containing in total 63 million compounds by using the hRpn13 Pru:hRpn2 structure and hRpn2-binding site of hRpn13 as a binding pocket. Twenty-two potential lead compounds were selected for validation by biophysical assays. hRpn13 W108 is partially exposed when free but buried by hRpn2, enabling tryptophan quenching by differential scanning fluorimetry (DSF at λ350) for assaying binding and this approach was used to screen for compound binding to this site. 20 μM compound (separately for twenty compounds) was incubated with 1 μM hRpn13 Pru and fluorescence emission at 350 nm measured. […] The compounds were separately added at 10-fold molar excess to 20 μM ^15N-labeled hRpn13 Pru and binding assessed at 25° C. by 2D NMR for samples dissolved in NMR buffer (20 mM sodium phosphate, 50 mM NaCl, 2 mM DTT, 10% DMSO-d6 (deuterated DMSO), pH 6.5). […]
For screening by ^1H, ^15N HSQC experiments, small molecule dissolved in DMSO-d6 was added to 20 μM or 250 μM ^15N-labeled hRpn13 Pru at a molar excess of 2-fold (for XL5) or 10-fold (for all compounds tested) in NMR buffer (20 mM sodium phosphate, 50 mM NaCl, 2 mM DTT, 10% DMSO-d6, pH 6.5). […] Three ^13C-half-filtered NOESY experiments were recorded with a 100 ms mixing time on asymmetrically labeled samples dissolved in NMR buffer. […]

- Kd (hRpn13 Pru [1]): 6.67 µM
- change of affinity for hRpn13 Pru relative to XL5 (hRpn13 Pru [2]): similarly reduced affinity
Compound: N#CC(=Cc1cccc(NC(=O)c2ccc(C(F)(F)F)cc2)c1)C(=O)Nc1ccccc1C(=O)O
